{"sequences": {"note": "Chains of the proteins cited; added tags and fusions are not shown. Lines headed by an entry give the natural chain unless they say otherwise; changes in a name come on top.", "UniProt Q9Y5X5": "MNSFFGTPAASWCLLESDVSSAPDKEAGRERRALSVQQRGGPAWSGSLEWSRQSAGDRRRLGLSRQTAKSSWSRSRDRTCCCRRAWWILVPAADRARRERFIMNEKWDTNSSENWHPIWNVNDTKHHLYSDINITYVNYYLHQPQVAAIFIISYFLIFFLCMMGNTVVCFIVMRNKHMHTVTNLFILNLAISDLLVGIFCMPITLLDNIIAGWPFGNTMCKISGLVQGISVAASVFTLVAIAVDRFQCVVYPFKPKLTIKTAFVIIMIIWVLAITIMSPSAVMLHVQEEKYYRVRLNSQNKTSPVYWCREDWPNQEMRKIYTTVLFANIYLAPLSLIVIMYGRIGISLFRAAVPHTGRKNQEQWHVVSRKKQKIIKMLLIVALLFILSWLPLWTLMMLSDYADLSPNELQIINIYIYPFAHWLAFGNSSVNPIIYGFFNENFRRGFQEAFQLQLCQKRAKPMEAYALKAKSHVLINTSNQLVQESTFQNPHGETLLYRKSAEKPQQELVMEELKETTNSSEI"}, "source": "patent US20050130197A1", "about": "(published 2005)", "key": {"[1]": {"molecular_target": "T1, human NPFF2 receptor (Homo sapiens, UniProt Q9Y5X5)", "settings": "read-out: [125I]Ligand Filtration Human Ki (c); data from Eur. J. Pharmacol. 451: 245-256 (2002); cited from earlier work"}, "[2]": {"molecular_target": "T1, human NPFF2 receptor", "experiment": "Fluorescence polarization (FP) competition binding assay, TAMRA-NPFF tracer, 0.1% Pluronic F-127"}}, "note": "Where two headings read alike, the source gives them in different places.", "data": [{"smiles": "N=C(N)NCCC[C@H](NC(=O)[C@H](CCC(N)=O)NC(=O)[C@@H]1CCCN1)C(=O)N[C@@H](Cc1ccccc1)C(N)=O", "note": "[PQRFamide]", "values": [{"measurement": "Ki", "setting": "[1]", "result": "6.8 ± 1.2", "unit": "nM"}, {"measurement": "Ki", "setting": "[2]", "result": "13.2 ± 0.1", "unit": "nM"}, {"measurement": "Ki for inhibiting TAMRA-NPFF binding (in words)", "setting": "[2]; FP displacement curves", "result": "nanomolar range"}]}]}
